Results on 2 substances are retold here after patent publication US9428553B2, “Meditopes and meditope-binding antibodies and uses thereof” (City of Hope, priority 2012, dated 2016).

The conditions of data set [1]: in vivo.
The test system of data set [2] is cQFD meditope. In words: SPR, antibodies over cQFD meditope-conjugated CM5 chip. It counts as binding. Particulars: 0.01, 0.05, 0.1, 0.5 and 1 μM antibody. On the technique in general: SPR reads the build-up and loss of mass on a sensor chip optically.

Take “meditope-enabled trastuzumab: trastuzumab mutated at framework residues to contain the cetuximab meditope binding site (SEQ ID NOs: 6 and 9)”: in data set [1], the biodistribution entry is listed as “indistinguishable”.
On to “trastuzumab: humanized monoclonal antibody that binds to ErbB2”, for which the “binding to the meditope-conjugated chip” value in data set [2] is recorded as “No binding”.
